From patent US20260015372A1, “Organophosphorous Compounds and Uses Thereof” (priority 2022, published 2026)

Protein sequences, listed by entry. Tags and fused reporters are not part of them. Residues count along the entry.
UniProt P06276, 29-602, species assumed: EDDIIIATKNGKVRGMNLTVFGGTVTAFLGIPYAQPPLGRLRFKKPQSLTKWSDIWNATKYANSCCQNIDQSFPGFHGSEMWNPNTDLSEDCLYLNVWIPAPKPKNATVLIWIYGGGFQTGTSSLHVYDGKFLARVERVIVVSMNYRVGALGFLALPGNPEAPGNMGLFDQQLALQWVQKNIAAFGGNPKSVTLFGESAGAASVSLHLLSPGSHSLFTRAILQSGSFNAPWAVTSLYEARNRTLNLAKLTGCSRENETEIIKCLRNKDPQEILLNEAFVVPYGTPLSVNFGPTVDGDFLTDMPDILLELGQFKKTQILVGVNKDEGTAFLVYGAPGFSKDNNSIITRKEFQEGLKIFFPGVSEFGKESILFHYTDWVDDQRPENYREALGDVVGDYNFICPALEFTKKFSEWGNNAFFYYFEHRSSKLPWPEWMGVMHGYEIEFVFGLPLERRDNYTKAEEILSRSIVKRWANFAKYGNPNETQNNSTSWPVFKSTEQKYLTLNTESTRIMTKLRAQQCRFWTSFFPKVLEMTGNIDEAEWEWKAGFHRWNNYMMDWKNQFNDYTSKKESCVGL

These compounds were tested against BCHE (Homo sapiens (Human), UniProt P06276) (assay: biochemical).
Description: The compounds referred to herein have BCHE inhibitory activity. To determine the inhibitory values, enzymes were incubated for 2 hours in the presence of varying concentrations of compound prior to activity measurements. Activity is then measured colorimetrically upon addition of substrate and Ellman's reagent.
For `CCCCOP(=O)(OCC)Oc1ccccc1` (racemic) [Compound 99, (±)-n-Butyl ethyl phenyl phosphate], the Ki was 10000 µM.
`C=P(OCCCC)(OCCCC)SCCCSP(=O)(OCCCC)OCCCC` [Compound 69, O,O,O′,O′-tetrabutyl S,S′-(propane-1,3-diyl) Bis(phosphorothioate)] was tested, and the Ki was 0.21 µM.
Work on `C=P(OCCCC)(OCCCC)SCCCCCSP(=O)(OCCCC)OCCCC` [Compound 71, O,O,O′,O′-tetrabutyl S,S′-(pentane-1,5-diyl) Bis(phosphorothioate)] yielded a Ki of 0.24 µM.
`C=P(OCCCC)(OCCCC)SCCCCCCSP(=O)(OCCCC)OCCCC` [Compound 72, O,O,O′,O′-tetrabutyl S,S′-(hexane-1,6-diyl) Bis(phosphorothioate)] was tested, and the Ki was 0.25 µM.
In the case of `C=P(OCCCC)(OCCCC)SCCCCCCCSP(=O)(OCCCC)OCCCC` [Compound 73, O,O,O′,O′-tetrabutyl S,S′-(heptane-1,7-diyl) Bis(phosphorothioate)], the Ki is reported as 0.34 µM.
In the case of `CCCCOP(=O)(Cc1ccc(C)cc1)OCCCC` [Compound 85, Di-n-butyl 4-methylbenzylphosphonate], the IC50 is reported as 80 µM.
`CCCCOP(=O)(Cc1ccccc1)OCCCC` [Compound 91, Di-n-butyl benzylphosphonate] showed an IC50 of 66 µM.
`CCCOP(=O)(OCCC)Oc1ccccc1` [Compound 95, Di-n-propyl phenyl phosphate] showed a Ki of 80 µM.
`CCCCOP(=O)(OCCCC)Oc1ccccc1` [Compound 96, Di-n-butyl phenyl phosphate] gave a Ki of 43 µM.
